Assay results from patent US4477456A (priority 1982, dated 1984).

Tested on: characteristic stretching or writhing syndrome induced by phenylquinone
Assay: standard phenylquinone writhing (PQW) test, analgesic activity
Format: in vivo, female white mice
Conditions: 30 min before observation, mice

Substance | Effect ED50, Oral PQW [mg/kg]
3-Cyclopropylmethyl-5- or -6-(1-hydroxyethyl)-1,2,3,4,5,6,7,7a-octahydro-4a,7-ethanobenzofuro[3,2-e]isoquinolin-9-ol [Example 10 (major)] | 0.75
3-Cyclopropylmethyl-5- or -6-(1-hydroxyethyl)-1,2,3,4,5,6,7,7a-octahydro-4a,7-ethanobenzofuro[3,2-e]isoquinolin-9-ol [Example 10 (minor)] | 15.6
